Measurements as given in patent publication US20220175820A1, “DEXTRAN SULFATE FOR INFLAMMATORY DERMATOSES” (PIERRE FABRE DERMO-COSMETIQUE, priority 2019, published 2022).

Tests used:
[1] = system: FABP5: epidermal fatty acid binding protein; experiment: RT-qPCR gene expression in normal human keratinocytes: FABP5; assay type: cell-based; details: dextran sulfate from Welding GMBH & Co, 4000-8000 Da, 2 mg/ml, 48 h
Description: (§1) The effects of this compound were assessed via the RT-qPCR technique with the analysis of 12 target genes chosen for their importance in keratinocyte differentiation, antimicrobial defence and hydration. Calcium chloride (tested at 1.5 mM) is used as the reference compound (physiological agent inducing terminal epidermal differentiation). The cells are then collected for analysis of target expression (mRNA) by real-time PCR. Total RNAs were extracted with TriPure Isolation Reagent® according to the supplier's instructions (Roche Life Science, Meylan, France). They were assayed with the Bioanalyser 2100 (Agilent Technologies, Les Ulis, France). The mRNAs were reverse transcribed into complementary DNA with oligo(dT) and Transcriptor Reverse Transcriptase. PCR was performed in the LightCycler® System according to the supplier's instructions (Roche). The PCR mix used is SYBR green I. The results were analyzed with Microsoft Excel®. The relative quantity is calculated for each gene by normalizing with two reference genes, ribosomal protein L13A (RPL13A) and TATA box binding protein (TBP).

[2] = system: CLDN4: claudin 4; experiment: RT-qPCR gene expression in normal human keratinocytes: CLDN4; assay type: cell-based; details: dextran sulfate from Welding GMBH & Co, 4000-8000 Da, 2 mg/ml, 48 h
Description: as §1

[3] = system: DEFB4A: β-defensin 2; experiment: RT-qPCR gene expression in normal human keratinocytes: DEFB4A; assay type: cell-based; details: dextran sulfate from Welding GMBH & Co, 4000-8000 Da, 2 mg/ml, 48 h
Description: as §1

[4] = system: FLG: filaggrin; experiment: RT-qPCR gene expression in normal human keratinocytes: FLG; assay type: cell-based; details: dextran sulfate from Welding GMBH & Co, 4000-8000 Da, 2 mg/ml, 48 h
Description: as §1

[5] = system: CASP14: caspase 14; experiment: RT-qPCR gene expression in normal human keratinocytes: CASP14; assay type: cell-based; details: dextran sulfate from Welding GMBH & Co, 4000-8000 Da, 2 mg/ml, 48 h
Description: as §1

[6] = system: CDSN : corneodesmosin; experiment: RT-qPCR gene expression in normal human keratinocytes: CDSN; assay type: cell-based; details: dextran sulfate from Welding GMBH & Co, 4000-8000 Da, 2 mg/ml, 48 h
Description: as §1

[7] = in water and saline solutions; cited from earlier work
[8] = system: SULT2B1: cholesterol sulfotransferase; experiment: RT-qPCR gene expression in normal human keratinocytes: SULT2B1; assay type: cell-based; details: dextran sulfate from Welding GMBH & Co, 4000-8000 Da, 2 mg/ml, 48 h
Description: as §1

[9] = system: TGM1: transglutaminase 1; experiment: RT-qPCR gene expression in normal human keratinocytes: TGM1; assay type: cell-based; details: dextran sulfate from Welding GMBH & Co, 4000-8000 Da, 2 mg/ml, 48 h
Description: as §1

[10] = system: DEGS2: sphingolipid C4-hydroxylase/delta-4 desaturase; experiment: RT-qPCR gene expression in normal human keratinocytes: DEGS2; assay type: cell-based; details: dextran sulfate from Welding GMBH & Co, 4000-8000 Da, 2 mg/ml, 48 h
Description: as §1

[11] = system: KLK7: type 7 kallikrein; experiment: RT-qPCR gene expression in normal human keratinocytes: KLK7; assay type: cell-based; details: dextran sulfate from Welding GMBH & Co, 4000-8000 Da, 2 mg/ml, 48 h
Description: as §1

- FABP5 Mean RQ (relative quantity) [1]: 25.4
- CASP14 Mean RQ (relative quantity) [5]: 23.8
- SULT2B1 Mean RQ (relative quantity) [8]: 41.4
- TGM1 Mean RQ (relative quantity) [9]: 27.0
- DEGS2 Mean RQ (relative quantity) [10]: 63.8
Substance: Sodium dextran sulphate [Dextran sulfate]
- CLDN4 Mean RQ (relative quantity) [2]: 9.2
- DEFB4A Mean RQ (relative quantity) [3]: 41.8
- FLG Mean RQ (relative quantity) [4]: 81.2
- CDSN Mean RQ (relative quantity) [6]: 8.0
- solubility [7]: good solubility
- KLK7 Mean RQ (relative quantity) [11]: 96.0
